Assays:
[1] = species: Rattus norvegicus; assay: Open TG-GATES - Regimen: Single; format: toxicity, organism-based, Sprague-Dawley; parameters: regimen Single, gender Male, age 6 weeks; details: in vivo
[2] = species: Rattus norvegicus; assay: Open TG-GATES - Regimen: Daily Repeat; format: toxicity, organism-based, Sprague-Dawley; parameters: regimen Daily Repeat, gender Male, age 6 weeks; details: in vivo, po, tissue Plasma, route gavage
[3] = 0 mg/kg, 72 h, dose level Control, time 3 day
[4] = 0 mg/kg, […], dose level Control, time 7 day
[5] = 0 mg/kg, […], dose level Control, time 14 day
[6] = 0 mg/kg, […], dose level Control, time 28 day
[7] = 25 mg/kg, 72 h, dose level Low, time 3 day
[8] = 25 mg/kg, […], dose level Low, time 7 day
[9] = 25 mg/kg, […], dose level Low, time 14 day
[10] = 25 mg/kg, […], dose level Low, time 28 day
[11] = 75 mg/kg, 72 h, dose level Middle, time 3 day
[12] = 75 mg/kg, […], dose level Middle, time 7 day
[13] = 75 mg/kg, […], dose level Middle, time 14 day
[14] = 75 mg/kg, […], dose level Middle, time 28 day
[15] = 250 mg/kg, 72 h, dose level High, time 3 day
[16] = 250 mg/kg, […], dose level High, time 7 day
[17] = 250 mg/kg, […], dose level High, time 14 day
[18] = 250 mg/kg, […], dose level High, time 28 day
[19] = po, 0 mg/kg, 3 h, tissue Plasma, route gavage, dose level Control
[20] = po, 0 mg/kg, 6 h, tissue Plasma, route gavage, dose level Control
[21] = po, 0 mg/kg, 9 h, tissue Plasma, route gavage, dose level Control
[22] = po, 0 mg/kg, 24 h, tissue Plasma, route gavage, dose level Control
[23] = po, 25 mg/kg, 3 h, tissue Plasma, route gavage, dose level Low
[24] = po, 25 mg/kg, 6 h, tissue Plasma, route gavage, dose level Low
[25] = po, 25 mg/kg, 9 h, tissue Plasma, route gavage, dose level Low
[26] = po, 25 mg/kg, 24 h, tissue Plasma, route gavage, dose level Low
[27] = po, 75 mg/kg, 3 h, tissue Plasma, route gavage, dose level Middle
[28] = po, 75 mg/kg, 6 h, tissue Plasma, route gavage, dose level Middle
[29] = po, 75 mg/kg, 9 h, tissue Plasma, route gavage, dose level Middle
[30] = po, 75 mg/kg, 24 h, tissue Plasma, route gavage, dose level Middle
[31] = po, 250 mg/kg, 3 h, tissue Plasma, route gavage, dose level High
[32] = po, 250 mg/kg, 6 h, tissue Plasma, route gavage, dose level High
[33] = po, 250 mg/kg, 9 h, tissue Plasma, route gavage, dose level High
[34] = po, 250 mg/kg, 24 h, tissue Plasma, route gavage, dose level High
[35] = ip, 0 mg/kg, 3 h, tissue Blood, route intraperitoneal injection, dose 0 ug/Kg, dose level Control

## CN(C)CCCN1c2ccccc2CCc2ccc(Cl)cc21 [CLOMIPRAMINE]
[1]; po, 30 mg/kg, 3 h, tissue Blood, route gavage, dose level Middle
  RBC: 677 x10_4/ul
[1]; po, 100 mg/kg, 6 h, tissue Plasma, route gavage, dose level High
  Cl: 106.4 meq/L

## CN1C(=O)CN=C(c2ccccc2)c2cc(Cl)ccc21 [DIAZEPAM]
[2]; [3]
  A/G: 1.9
  Ca: 10.3 mg/dL
  IP: 7.7 mg/dL
  LDH: 81.2 IU/L
[2]; [4]
  A/G: 2
  Ca: 11.4 mg/dL
  IP: 8.4 mg/dL
  LDH: 76.2 IU/L
[2]; [5]
  A/G: 1.7
  Ca: 11.1 mg/dL
  IP: 7.7 mg/dL
  LDH: 127.8 IU/L
[2]; [6]
  A/G: 1.7
  Ca: 10.7 mg/dL
  IP: 6.3 mg/dL
  LDH: 55.6 IU/L
[2]; [7]
  A/G: 2.2
  Ca: 10.3 mg/dL
  IP: 8.4 mg/dL
  LDH: 102.6 IU/L
[2]; [8]
  A/G: 2.1
  Ca: 11 mg/dL
  IP: 8.1 mg/dL
  LDH: 80.8 IU/L
[2]; [9]
  A/G: 1.9
  Ca: 10.9 mg/dL
  IP: 7.2 mg/dL
  LDH: 93.2 IU/L
[2]; [10]
  A/G: 1.6
  Ca: 10.6 mg/dL
  IP: 7 mg/dL
  LDH: 71.6 IU/L
[2]; [11]
  A/G: 2.1
  Ca: 10.6 mg/dL
  IP: 7.9 mg/dL
  LDH: 105.2 IU/L
[2]; [12]
  A/G: 2.1
  Ca: 11 mg/dL
  IP: 7.9 mg/dL
  LDH: 73.2 IU/L
[2]; [13]
  A/G: 1.8
  Ca: 11 mg/dL
  IP: 7.4 mg/dL
  LDH: 95.2 IU/L
[2]; [14]
  A/G: 1.6
  Ca: 10.5 mg/dL
  IP: 6.1 mg/dL
  LDH: 56.8 IU/L
[2]; [15]
  A/G: 1.8
  Ca: 10.8 mg/dL
  IP: 7.9 mg/dL
  LDH: 175.6 IU/L
[2]; [16]
  A/G: 1.8
  Ca: 10.9 mg/dL
  IP: 7.6 mg/dL
  LDH: 192 IU/L
[2]; [17]
  A/G: 1.8
  Ca: 11.4 mg/dL
  IP: 7.8 mg/dL
  LDH: 169.6 IU/L
[2]; [18]
  A/G: 1.7
  Ca: 10.7 mg/dL
  IP: 7.3 mg/dL
  LDH: 97 IU/L
[1]; [19]
  A/G: 2
  IP: 9.3 mg/dL
[1]; [20]
  A/G: 2
  Ca: 10.1 mg/dL
  IP: 10.2 mg/dL
  LDH: 82.6 IU/L
[1]; [21]
  A/G: 2.1
  IP: 10.1 mg/dL
  LDH: 79.2 IU/L
[1]; [22]
  A/G: 2
  Ca: 9.9 mg/dL
  IP: 8.2 mg/dL
  LDH: 93.8 IU/L
[1]; [23]
  A/G: 2
  Ca: 10.8 mg/dL
  IP: 11 mg/dL
  LDH: 76.4 IU/L
[1]; [24]
  A/G: 2
  IP: 10.3 mg/dL
  LDH: 94.6 IU/L
[1]; [25]
  A/G: 2.2
  Ca: 10.8 mg/dL
  IP: 11.1 mg/dL
  LDH: 79.2 IU/L
[1]; [26]
  A/G: 1.9
  Ca: 10.2 mg/dL
  IP: 7.4 mg/dL
  LDH: 97 IU/L
[1]; [27]
  A/G: 2.5
  Ca: 10.6 mg/dL
  IP: 10.9 mg/dL
  LDH: 76.6 IU/L
[1]; [28]
  A/G: 1.9
  Ca: 10.6 mg/dL
  IP: 10.6 mg/dL
  LDH: 83.8 IU/L
[1]; [29]
  A/G: 2.1
  Ca: 11 mg/dL
  IP: 11.2 mg/dL
  LDH: 84.4 IU/L
[1]; [30]
  A/G: 2.4
  Ca: 10.1 mg/dL
  IP: 7.9 mg/dL
  LDH: 93.6 IU/L
[1]; [31]
  A/G: 1.9
  Ca: 10.2 mg/dL
  LDH: 134.2 IU/L
[1]; [32]
  A/G: 2
  Ca: 10.6 mg/dL
  IP: 9.9 mg/dL
  LDH: 183.8 IU/L
[1]; [33]
  A/G: 2
  Ca: 11.1 mg/dL
  IP: 10.3 mg/dL
  LDH: 222.2 IU/L
[1]; [34]
  A/G: 2.2
  IP: 8.6 mg/dL
  LDH: 167 IU/L

## CC/C(=C(\c1ccccc1)c1ccc(OCCN(C)C)cc1)c1ccccc1 [TAMOXIFEN]
[1]; po, 0 mg/kg, 3 h, tissue Blood, route gavage, dose level Control
  Ret: 10.1%
[1]; [21]
  ALP: 1541 IU/L
[1]; po, 0 mg/kg, 24 h, tissue Blood, route gavage, dose level Control
  Ret: 10.3%
[1]; [22]
  PL: 156.4 mg/dL
[1]; po, 6 mg/kg, 3 h, tissue Blood, route gavage, dose level Low
  Ret: 10.1%
[1]; po, 6 mg/kg, 9 h, tissue Blood, route gavage, dose level Low
  Ret: 10.1%
[1]; po, 20 mg/kg, 9 h, tissue Plasma, route gavage, dose level Middle
  Ca: 10.3 mg/dL
[1]; po, 60 mg/kg, 6 h, tissue Blood, route gavage, dose level High
  Ret: 10.1%
[1]; po, 60 mg/kg, 24 h, tissue Plasma, route gavage, dose level High
  PL: 103 mg/dL

## LPS
[1]; [35]
  Fbg: 245 mg/dL
  Hb: 13.3 g/dL
[1]; ip, 0.01 mg/kg, 3 h, tissue Blood, route intraperitoneal injection, dose 10 ug/Kg, dose level Low
  Ht: 39.2%
[1]; ip, 0.01 mg/kg, 3 h, tissue Plasma, route intraperitoneal injection, dose 10 ug/Kg, dose level Low
  Ca: 10.2 mg/dL
[1]; ip, 0.01 mg/kg, 6 h, tissue Blood, route intraperitoneal injection, dose 10 ug/Kg, dose level Low
  Hb: 13.3 g/dL
[1]; ip, 0.01 mg/kg, 9 h, tissue Plasma, route intraperitoneal injection, dose 10 ug/Kg, dose level Low
  Ca: 10.2 mg/dL
[1]; ip, 0.3 mg/kg, 3 h, tissue Blood, route intraperitoneal injection, dose 300 ug/Kg, dose level Middle
  MCV: 66.2 fL
[1]; ip, 3 mg/kg, 3 h, tissue Blood, route intraperitoneal injection, dose 3000 ug/Kg, dose level High
  Hb: 13.2 g/dL
[1]; ip, 3 mg/kg, 6 h, tissue Blood, route intraperitoneal injection, dose 3000 ug/Kg, dose level High
  Hb: 13.3 g/dL
[1]; ip, 3 mg/kg, 9 h, tissue Plasma, route intraperitoneal injection, dose 3000 ug/Kg, dose level High
  IP: 10.7 mg/dL
[1]; ip, 3 mg/kg, 24 h, tissue Plasma, route intraperitoneal injection, dose 3000 ug/Kg, dose level High
  Ca: 10.2 mg/dL
